Test results as given in patent US20020035738A1, “Plant protection method” (priority 1996, published 2002).
Like-named read-outs stand apart in the source and are kept apart here.

Test system: pPDF1.2-GUS-tNOS transgene
Assay: β-glucuronidase activity in seedlings of pPDF1.2-GUS-tNOS Arabidopsis lines germinated on jasmonic acid
Type: in vivo, Arabidopsis thaliana ecotype C24
Conditions: Arabidopsis thaliana
Experimental: The ability of the pPDF1.2-GUS-tNOS transgene to respond to jasmonic acid treatment was first assessed on the progeny of six independent T0 transgenic Arabidopsis lines. Seeds of each of these lines were germinated aseptically, either on Murashige and Skoog agar medium containing 1% sucrose and 50 μM kanamycin or the same medium supplemented with 10 μM jasmonic acid. […] The β-glucuronidase activity was normalized to the total protein content in each sample, as determined by the method of Bradford (1976) using bovine serum albumin as a […].

## CC/C=C\C[C@H]1C(=O)CC[C@@H]1CC(=O)O [jasmonic acid]
read-out: Fold induction of β-glucuronidase activity, transgenic line 3, JA-treated vs control, 10 μM jasmonic acid
  fold induction at 10 µM: 25.2
read-out: Fold induction of β-glucuronidase activity, transgenic line 4, JA-treated vs control, 10 μM jasmonic acid
  fold induction at 10 µM: 8.7
read-out: Fold induction of β-glucuronidase activity, transgenic line 5, JA-treated vs control, 10 μM jasmonic acid
  fold induction at 10 µM: 9
read-out: Fold induction of β-glucuronidase activity, transgenic line 6, JA-treated vs control, 10 μM jasmonic acid
  fold induction at 10 µM: 14.5
read-out: Fold induction of β-glucuronidase activity, transgenic line 7, JA-treated vs control, 10 μM jasmonic acid
  fold induction at 10 µM: 9.7
read-out: Fold induction of β-glucuronidase activity, transgenic line 19, JA-treated vs control, 10 μM jasmonic acid
  fold induction at 10 µM: 25.2
